# Measurements from published antibiotic growth screens (doi:10.1038/s41589-023-01349-8).
# The list shows a part of the results.
# System: A. baumannii ATCC 17978
# Assay: relative growth (fraction of control); higher = less inhibition
# Conditions: 50 µM
row,SMILES,relative growth
1,O=C(/C=C/c1ccc(O)c(O)c1)O[C@H]1[C@H](O)C[C@](O)(C(=O)O)C[C@H]1OC(=O)/C=C/c1ccc(O)c(O)c1,0.947
2,COCC#Cc1cnc2c(c1)C(=O)N([C@H](C)CO)C[C@@H](C)[C@@H](CN(C)S(=O)(=O)c1cn(C)cn1)O2,1.06
3,O=C(C1=C[C@H](c2ccc3c(c2)OCO3)C[C@H](OCCCCO)O1)N1CCN(Cc2ccc3c(c2)OCO3)CC1,0.826
4,COc1ccccc1S(=O)(=O)N[C@@H]1C=C[C@@H](CC(=O)N2CCN(C)CC2)O[C@@H]1CO,1.01
5,COC1=C(OC)C(=O)C(CCCCCCCCCCO)=C(C)C1=O,1.55
6,O=C(C[C@@H]1C=C[C@H](NC(=O)CN2CCOCC2)[C@H](CO)O1)NC1CCC1,0.999
7,CC1(C)CC[C@]2(C(=O)O[C@@H]3O[C@H](CO)[C@@H](O[C@H]4OC[C@](O)(CO)[C@H]4O)[C@H](O)[C@H]3O)CC[C@]3(C)C(=CC[C@H]4[C@@]5(C)C[C@@H](O)[C@H](O)[C@@](C)(CO)[C@@H]5[C@H](O)C[C@]43C)[C@@H]2C1,1.14
8,CCS(=O)(=O)NCC[C@H]1CC[C@H](NS(=O)(=O)c2cccc(F)c2)[C@@H](CO)O1,0.955
9,COc1cc(-c2coc3cc(O)c(OC)c(O)c3c2=O)cc(O)c1OC,1.01
10,CC(C)CC#Cc1ccc2c(c1)O[C@H](CN(C)C(=O)NC1CCCC1)[C@H](C)CN([C@H](C)CO)S2(=O)=O,1.08
11,NC(=O)Cn1cnc2sc3c(c2c1=O)CCC3,1.01
12,C[C@@H]1CN([C@@H](C)CO)S(=O)(=O)c2ccc(C#CC3CCCC3)cc2O[C@H]1CN(C)C(=O)Cc1ccncc1,0.677
13,CC(C)CC#Cc1ccc2c(c1)O[C@H](CN(C)C(=O)Cc1cccnc1)[C@H](C)CN([C@H](C)CO)S2(=O)=O,0.953
14,CCOC(=O)[C@H]1CC(CC2OCCO2)=NO1,1.02
15,O=C(O)CCCCCCC(=O)O,1
16,CCCC(=O)Nc1ccc(OCC(O)CNC(C)C)c(C(C)=O)c1.Cl (stereo not drawn),1.06
17,Nc1ccc(S(=O)(=O)[O-])cc1.Nc1ccc(S(=O)(=O)[O-])cc1.[Zn+2],0.999
18,CC(C)C[C@@H]1NC(=O)[C@H]2C[C@@H](C(=O)NCCCCCCNC(=O)CS)[C@@H](c3cccc(OCCO)c3)N2C1=O,1.09
19,O=C(N[C@@H]1CC[C@@H](CC(=O)N2CCOCC2)O[C@H]1CO)c1ccccn1,0.938
20,COC(=O)c1cc(=O)nc2n1[C@H]1O[C@H](CO)[C@H](O)[C@H]1O2,1.03
21,COc1ccccc1C(=O)N1CCNCC1,1.1

row,SMILES,relative growth
1,N#Cc1nn(-c2ccccc2)c(=O)[nH]c1=O,0.946
2,N[C@@H](Cc1ccccc1F)C(=O)O,0.956
3,CC(=O)NCCCC[C@@H]1NC(=O)[C@H]2C[C@@H](C(=O)O)[C@@H](c3ccc(O)cc3)N2C1=O,1.73
4,Cc1ccc(S(=O)(=O)N[C@@H](Cc2ccccc2)C(=O)NCCCn2cc(-c3ccccc3N)nn2)cc1,1.09
5,NC(=O)N/N=C/c1ccc([N+](=O)[O-])o1,0.467
6,COCC(=O)Nc1ccc2c(c1)CC(=O)N2,1.02
7,Cc1ccc(NC2C(=O)NC(=O)N2N)cc1 (stereo not drawn),0.875
8,COCC(=O)N(C)C[C@@H]1Oc2cc(C#CCC3CCCC3)ccc2S(=O)(=O)N([C@@H](C)CO)C[C@@H]1C,0.673
9,COc1c(-c2ccccc2)oc2cc(O)cc(O)c2c1=O,0.965
10,COCCCNC(=O)[C@@]1(Sc2ccc(C)cc2)CC(=O)N(C2CCCCC2)[C@@H]1c1ccc(CO)cc1I,0.783
11,Cl.c1ccc2c(c1)CCCC2C1=NCCN1 (stereo not drawn),0.962
12,COCCOC(=O)N1C(=O)[C@@]2(c3cc(C#CCCO)ccc31)[C@H](c1ccccc1OCCO)N1[C@H](c3ccccc3)[C@H](c3ccccc3)OC(=O)[C@H]1[C@@H]2C(=O)N1CCc2cc(OC)c(OC)cc2C1,1.18
13,Cc1[nH]c(=O)[nH]c(=O)c1S(=O)(=O)N1CCN(c2ccccc2)CC1,0.982
14,CN(C)C(=O)C[C@H]1C=C[C@@H](NC(=O)C2CC2)[C@H](CO)O1,1.13
15,O=C(CN1CCOCC1)NCC[C@@H]1CC[C@H](NS(=O)(=O)c2ccc(Cl)cc2)[C@H](CO)O1,1.1
16,O=C(N/N=C/[C@H](O)[C@H](O)[C@@H](O)[C@@H](O)CO)c1ccccn1,1.03
17,COc1cccc(S(=O)(=O)Nc2ccc3c(c2)OC[C@@H](C)N(C(=O)Cc2cccnc2)C[C@H](C)[C@@H](OC)CN(C)C3=O)c1,1.01
18,Cn1cnc(S(=O)(=O)N[C@@H]2C=C[C@@H](CC(=O)NCC3CC3)O[C@@H]2CO)c1,0.969
19,CS(=O)(=O)N1CC(=O)Nc2ccccc21,1.1
20,O=C(CNC(=O)c1ccc(Cl)cc1)NO,0.96
21,CC(C)(N)c1ccccc1Br,1.01

row,SMILES,relative growth
1,Cc1nc(-c2sc3ccc(Cl)cc3c2C)cs1,1.02
2,COc1ccc([C@H]([C@H](Cc2ccccc2)OC(C)=O)N(CC#C[C@@H](O)c2ccccc2)[C@@H](Cc2ccccc2)C(OC)OC)cc1,1.07
3,Cl.NC(Cc1ccc(O)cc1)C(=O)O (stereo not drawn),1.16
4,Cl.NCCS,1.11
5,CN(CP(=O)(O)CN1CCOCC1)S(C)(=O)=O,0.975
6,C[N+](C)(C)CCO.Cn1c(=O)c2[n-]cnc2n(C)c1=O,0.873
7,CC(=O)Oc1cccc(O)c1,1.04
8,Cc1ccc(S(=O)(=O)N2C[C@@H](O)COC[C@@H]3O[C@H](CC(=O)NCc4ccc5c(c4)OCO5)CC[C@H]32)cc1,0.893
9,Cc1ccc(S(=O)(=O)N[C@@H]2CC[C@@H](CC(=O)N3CCC(Cc4ccccc4)CC3)O[C@@H]2CO)cc1,0.709
10,COCCOC(=O)N1C(=O)[C@@]2(c3ccccc31)[C@H](c1ccc(OCCO)cc1)N1[C@H](c3ccccc3)[C@H](c3ccccc3)OC(=O)[C@H]1[C@@H]2C(=O)N1CCc2cc(OC)c(OC)cc2C1,0.908
11,C=CC[C@H](CC(=O)N(CCO)Cc1ccccc1)C(=O)N[C@H](COC(=O)[C@@H](CC=C)Cc1ccc(F)cc1)C(C)(C)C,1.07
12,O=C1C[C@]2(c3ccc([N+](=O)[O-])cc3)C(=O)N(CCN3CCOCC3)c3cc(CO)ccc3[C@H]2N1C1CCCCC1,1.11
13,C=CCOC(=O)[C@H]1[C@@H]2C(=O)O[C@@H](c3ccccc3)[C@@H](c3ccccc3)N2[C@@H](c2ccc(OCCOC(=O)[C@H]3C[C@H]4C(=O)N[C@@H](CCCCNC(C)=O)C(=O)N4[C@H]3c3cccc(OCCO)c3)cc2)[C@]12C(=O)Nc1ccc(I)cc12,1.34
14,C=CCn1c(O)c(C#N)c(C)cc1=O,0.969
15,NC1=NC(=O)C[C@H](Cc2ccccc2)N1,1.05
16,CC(C)NC(=O)N(C)C[C@H]1OCc2cn(nn2)CCCC(=O)N([C@@H](C)CO)C[C@@H]1C,0.988
17,C=C(C)CC1(N[C@H](C)c2ccccc2)CCCCC1,0.823
18,CCS(=O)(=O)NCCc1csc(C)n1,1.12
19,CN1CCN(C(=O)C[C@@H]2CC[C@H]3[C@@H](COC[C@@H](O)CN3C(=O)Nc3cc(Cl)cc(Cl)c3)O2)CC1,0.807
20,C=CCCCCCCCCCCCC(O)CC(O)CO (stereo not drawn),1.25
21,COc1ccccc1CNC(=O)C[C@H]1C[C@@H]2c3cc(NC(=O)NC4CCCC4)ccc3O[C@@H]2[C@@H](CO)O1,0.951

row,SMILES,relative growth
1,CC(C)NC[C@@H](O)COc1cccc2ccccc12.Cl,0.874
2,CCCCn1c(SCC(N)=O)nc2c1c(=O)n(C)c(=O)n2C,1.13
3,COc1cccc(C#Cc2ccc3c(c2)O[C@@H](CN(C)C(C)=O)[C@@H](C)CN([C@@H](C)CO)S3(=O)=O)c1,0.977
4,COc1cccc(S(=O)(=O)N[C@@H]2CC[C@@H](CCn3cc(-c4ccccc4OC)nn3)O[C@H]2CO)c1,0.872
5,Cn1c(=O)c2c(ncn2C[C@@H](O)COc2ccccc2)n(C)c1=O,1.17
6,C[C@@H]1CN([C@@H](C)CO)C(=O)c2cc(C#CCN(C)C)cnc2O[C@@H]1CN(C)C(=O)CN1CCOCC1,1.15
7,CC1(C)OC(=O)NC1=O,1.16
8,O=C(C[C@H]1CC[C@@H]2[C@H](COC[C@H](O)CN2S(=O)(=O)c2ccc(F)cc2)O1)N[C@@H]1CCN(Cc2ccccc2)C1,1.15
9,CC1=NCCN1C(=O)[C@@H](N)CC(C)C,1.01
10,Cc1ccccc1NC(=N)N=C(N)N,0.927
11,CCC1OC(=O)[C@H](C)C(=O)[C@H](C)[C@@H](OC2O[C@H](C)C[C@H](N(C)C)[C@H]2O)[C@](C)(OC)C[C@@H](C)C(=O)[C@@H](C)[C@@H]2N(CCCCn3cnc(-c4cccnc4)c3)C(=O)O[C@]12C (stereo partly drawn),0.146
12,COc1ccc(NS(=O)(=O)c2ccc(N)cc2)nn1,1.05
13,Nc1ccc(C(=O)NCC(=O)O)cc1,1.15
14,C=C(NC(=O)C(=C)NC(=O)c1csc(C2=NC3c4csc(n4)C4NC(=O)c5csc(n5)C(C(C)(O)C(C)O)NC(=O)C5CSC(=N5)/C(=C\C)NC(=O)C(C(C)O)NC(=O)c5csc(n5)C3(CC2)NC(=O)C(C)NC(=O)C(=C)NC(=O)C(C)NC(=O)C(C(C)CC)NC2C=Cc3c(C(C)O)cc(nc3C2O)C(=O)OC4C)n1)C(N)=O (stereo not drawn),0.989
15,O=C(C[C@@H]1CC[C@@H](NC(=O)CN2CCOCC2)[C@@H](CO)O1)NC1CCC1,1.28
16,Nc1ncnc2c1ncn2[C@H]1O[C@@H](CO)[C@H](O)[C@@H]1O,1.09
17,CC(C)C[C@@H](NS(=O)(=O)c1ccc2[nH]c(=O)c(=O)[nH]c2c1)C(=O)O,1.16
18,Cl.NCCCC(=O)O [gamma-AMINOBUTYRIC ACID HYDROCHLORIDE],0.953
19,COCC#Cc1ccc2c(c1)O[C@@H](CN(C)C(=O)C1CCCCC1)[C@@H](C)CN([C@@H](C)CO)S2(=O)=O,0.828
20,O=C(C[C@H]1C=C[C@H](NC(=O)CN2CCOCC2)[C@@H](CO)O1)NCCc1ccccc1,1.07
